The record followed here is PubChem BioAssay AID588347 (National Center for Advancing Translational Sciences (NCATS), 2011).

By UniProt entry, the sequences of proteins in these tests, tags left out.
UniProt Q92830, whole entry, looked up: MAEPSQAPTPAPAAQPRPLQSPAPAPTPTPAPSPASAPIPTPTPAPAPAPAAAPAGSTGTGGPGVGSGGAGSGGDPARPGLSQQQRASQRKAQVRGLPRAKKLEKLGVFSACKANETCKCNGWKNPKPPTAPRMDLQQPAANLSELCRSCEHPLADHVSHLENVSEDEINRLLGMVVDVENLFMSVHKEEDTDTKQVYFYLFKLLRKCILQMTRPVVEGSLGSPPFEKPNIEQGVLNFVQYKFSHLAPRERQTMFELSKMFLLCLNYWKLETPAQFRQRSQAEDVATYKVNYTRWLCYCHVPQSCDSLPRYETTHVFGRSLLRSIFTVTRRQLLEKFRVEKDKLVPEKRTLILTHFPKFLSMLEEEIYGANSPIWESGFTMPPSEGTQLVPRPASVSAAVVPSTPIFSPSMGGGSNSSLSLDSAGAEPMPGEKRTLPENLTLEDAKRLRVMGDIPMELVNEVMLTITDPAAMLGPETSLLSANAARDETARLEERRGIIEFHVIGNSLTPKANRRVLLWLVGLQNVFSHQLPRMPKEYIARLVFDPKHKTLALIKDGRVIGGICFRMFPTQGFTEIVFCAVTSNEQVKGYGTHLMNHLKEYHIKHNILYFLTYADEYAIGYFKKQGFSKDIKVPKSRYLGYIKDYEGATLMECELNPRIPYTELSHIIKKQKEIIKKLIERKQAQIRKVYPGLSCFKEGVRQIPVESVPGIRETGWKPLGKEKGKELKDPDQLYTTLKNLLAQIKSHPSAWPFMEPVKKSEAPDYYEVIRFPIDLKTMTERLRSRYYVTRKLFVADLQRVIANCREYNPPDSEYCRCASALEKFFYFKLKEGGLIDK

This is a selection; strong and weak results do not stand in their true shares. Inconclusive results are not listed. Active and inactive are the calls of the source. The call rests on the fitted dose curve; in most records, active means well fitted inhibition curve with a large enough effect; inconclusive means small, poorly fitted or top-dose-only effect, or another doubt; inactive means no such curve, though single readings can be large or run the other way.

The assay concerns the target Histone acetyltransferase KAT2A (Homo sapiens) (UniProt Q92830). The experiment in a line: qHTS Assay for Inhibitors of GCN5L2: Hit confirmation. The conditions noted are these: GCN5L2 HAT, ThioGlo1 CoA fluorescence, 20 min. An excerpt:
Histone acetyltransferase (HAT) enzymes transfer a […] group from acetyl-coenzyme A to the epsilon-amino group of conserved lysine residues of N-terminal histone tails. Acetylation results in charge neutralization of this positively charged amino acid, decreasing interactions with the […] backbone and making the DNA more accessible for transcription. HATs have been recognized as an emerging drug target for treatment of cancer, diabetes, asthma, chronic obstructive pulmonary disease, cardiac disease, and viral infection. […] A quantitative high throughput screen was developed to identify small molecule inhibitors. […] Yasgar, et al. Compound Management for Quantitative High-Throughput Screening. […] Inglese, et al. Quantitative high-throughput screening: a titration-based approach that efficiently identifies biological activities in large chemical libraries. […]
To each well of a 1,536w plate, 3ul of GCN5L2 (final concentration 20nM, in 50mM HEPES, 0.1mM EDTA (pH 7.5), 0.01% Tween-20 buffer) are added using a Kalypsys dispenser. […] Plates are read immediately on the ViewLux (PerkinElmer) (Ex340nm/Em540nm) for a 0 min read, incubated for 20 min at room temperature, and read again on the ViewLux with the same settings. The initial read was carried out to identify compounds that are potentially fluorescent.

`O=P(Nc1nccs1)(c1ccccc1)c1nc2ccccc2s1` (stereo unspecified): the Potency was active: 6.46 µM.
